US8328898B2, “Environment-friendly carbon-nano synergistic complex fertilizers” (priority 2007, dated 2012)

What was measured:
[1] = N2O—N annual emission in the field, 280 days accumulated data (Experiment 8, Table 10)
[2] = Ion concentration ratio HCO3^−/H2CO3 in 1 mol/L solution (Experiment 4); type: physicochemical; details: 298k
Text: The amount of HCO3^−/H2CO3 existing in soil is important for promoting root development, improving the environment around the roots, and is playing an important role of buffering by reducing the pH increased by fertilizer application in soil. Therefore, determination of HCO3^−/H2CO3 ratios could sufficiently show whether the soil conditions are good or not. Experimental results in Table 4 indicate that the amount of H2CO3 is higher in soil applied with carbon-nano synergistic ammonium bicarbonate than that in soil applied with ammonium bicarbonate, and this higher H2CO3 amount makes HCO3^−/H2CO3 ratio reduce. […] Since the evaporation loss of ammonia is highest on the 15th day after fertilizer application, during this period, lower pH value caused by stabilized H2CO3 in soil could obviously reduce the evaporation of ammonia and the emission of green house gas CO2, and then increase the nitrogen utilization ratio, and prolong the longevity of the fertilizer.

[3] = Ion concentration ratio HCO3^−/CO3^= in 1 mol/L solution (Experiment 3); type: physicochemical; details: 298k
Text: Carbonate ion concentration ratio of HCO3^−/CO3^=/% in soil is affected obviously by carbon-nano synergistic ammonium bicarbonate. […] The emission process of CO2 is the alkalization process of HO^− entering the solution. When the forming amount of CO3^= in soil solution increases, the emission loss of CO2 increases, and the ratio of HCO3^−/CO3^= reduces comparatively; when the stability of HCO3^−is required to be enhanced, the ratio of HCO3^−/CO3^= increases comparatively.

[4] = pH changes in 1 mol/L solution (Experiment 5); type: physicochemical; details: 298K

## ammonium bicarbonate [ABC]
[1]
  Average of N2O—N annual emission flux: 70.93 μg N2O/m^3-h
  N2O—N annual emission flux range: −70-1291 μg N2O/m^3-h
  N2O—N emission flux/nitrogen fertilizer applied: 1.36%
[2]; test time 0 d
  HCO3^−/H2CO3 ion concentration ratio: 20
[2]; test time 0.125 d
  HCO3^−/H2CO3 ion concentration ratio: 33
[2]; test time 0.25 d
  HCO3^−/H2CO3 ion concentration ratio: 100
[2]; test time 1 d
  HCO3^−/H2CO3 ion concentration ratio: 370
[2]; test time 2 d
  HCO3^−/H2CO3 ion concentration ratio: 590
[2]; test time 3 d
  HCO3^−/H2CO3 ion concentration ratio: 751
[2]; test time 6 d
  HCO3^−/H2CO3 ion concentration ratio: 888
[2]; test time 9 d
  HCO3^−/H2CO3 ion concentration ratio: 937
[2]; test time 13 d
  HCO3^−/H2CO3 ion concentration ratio: 823
[2]; test time 16 d
  HCO3^−/H2CO3 ion concentration ratio: 826
[2]; test time 19 d
  HCO3^−/H2CO3 ion concentration ratio: 804
[3]; test time 0 d
  HCO3^−/CO3^= ion concentration ratio: 380
[3]; test time 0.125 d
  HCO3^−/CO3^= ion concentration ratio: 230
[3]; test time 0.25 d
  HCO3^−/CO3^= ion concentration ratio: 80
[3]; test time 1 d
  HCO3^−/CO3^= ion concentration ratio: 21
[3]; test time 2 d
  HCO3^−/CO3^= ion concentration ratio: 13.3
[3]; test time 3 d
  HCO3^−/CO3^= ion concentration ratio: 10.4
[3]; test time 6 d
  HCO3^−/CO3^= ion concentration ratio: 8.6
[3]; test time 9 d
  HCO3^−/CO3^= ion concentration ratio: 8.2
[3]; test time 13 d
  HCO3^−/CO3^= ion concentration ratio: 9.3
[3]; test time 16 d
  HCO3^−/CO3^= ion concentration ratio: 9.3
[3]; test time 19 d
  HCO3^−/CO3^= ion concentration ratio: 9.5
[4]; test time 0 d
  pH value: 7.668
[4]; test time 0.125 d
  pH value: 7.893
[4]; test time 0.25 d
  pH value: 8.350
[4]; test time 1 d
  pH value: 8.936
[4]; test time 2 d
  pH value: 9.128
[4]; test time 3 d
  pH value: 9.242
[4]; test time 6 d
  pH value: 9.315
[4]; test time 9 d
  pH value: 9.338
[4]; test time 13 d
  pH value: 9.242
[4]; test time 16 d
  pH value: 9.283
[4]; test time 19 d
  pH value: 9.272
